These are literature values, as cited in patent publication US20180214582A1, “METHOD FOR DIAGNOSING CARCINOMAS USING IRGD AND MAGENTIC RESONANCE TOMOGRAPHY (MRT)” (Albrecht Piiper, priority 2015, published 2018).

Data set [1] concerns HCCs in the livers with HCC. The settings on record: injection of nanoparticles; Waralee Watcharin, 2015, FIG. 4; cited from earlier work.
For the next data set, the system named is macrophages. The settings on record: Waralee Watcharin, 2015, FIG. 7; cited from earlier work.

Turning to “Gd-DTPA-containing human serum albumin (HSA) nanoparticles: Prior-art contrast agent: Gd-DTPA-containing human serum albumin nanoparticles (Watcharin 2015)”, the “contrasting of the HCCs in the livers with HCC in MRI” value in data set [1] is listed as “negative contrasting”. The absorption by macrophages result in the data set with macrophages is recorded as “absorbed very rapidly by the macrophages”.
